Data reported in US9974867B2, “Cytotoxic benzodiazepine derivatives” (priority 2014, dated 2018).

Experiments:
[1] = tested on: NCI-H2110 NSCLC xenografts; experiment: Antitumor activity of single dose against NCI-H2110 NSCLC xenografts (Example 10); format: in vivo, SCID mice
Protocol: (§1) Female CB.17 SCID mice, 6 weeks old, were received from Charles River Laboratories. Mice were inoculated with 1×10^7 NCI-H2110 tumor cells suspended in 0.1 ml 50% matrigel/serum free medium by subcutaneous injection in the right flank. When tumor volumes reached approximately 100 mm3 (day 7 post inoculation), animals were randomized based on tumor volume into 4 groups of 6 mice each.
(§2) Tumor size was measured twice to three times weekly in three dimensions using a caliper. The tumor volume was expressed in mm3 using the formula V=Length×Width×Height×½. A mouse was considered to have a partial regression (PR) when tumor volume was reduced by 50% or greater, complete tumor regression (CR) when no palpable tumor could be detected. Tumor volume was determined by StudyLog software.
(§3) Tumor growth inhibition (T/C Value) was determined using the following formula: T/C (%)=Median tumor volume of the treated/Median tumor volume of the control×100.
(§4) Tumor volume was determined simultaneously for treated (T) and the vehicle control (C) groups when tumor volume of the vehicle control reached predetermined size of 1000 mm3 The daily median tumor volume of each treated group was determined, including tumor-free mice (0 mm3) According to NCI standards, a T/C≤42% is the minimum level of anti-tumor activity. A T/C<10% is considered a high anti-tumor activity level.

[2] = tested on: Ishikawa endometrial xenografts; experiment: Antitumor activity of single dose against Ishikawa endometrial xenografts (Example 14); format: in vivo, SCID mice
Protocol: (§5) Female CB.17 SCID mice, 6 weeks old, were received from Charles River Laboratories. One cohort of mice were inoculated with 1×10^7 NCI-H2110 tumor cells suspended in 0.1 ml 50% matrigel/serum free medium by subcutaneous injection in the right flank. The second cohort of mice were inoculated with 1×10^7 Hec-1b tumor cells suspended in 0.1 ml serum free medium by subcutaneous injection in the right flank. The third cohort of mice were inoculated with 1×10^7 Ishikawa tumor cells suspended in 0.1 ml 50% matrigel/serum free medium by subcutaneous injection in the right flank. When tumor volumes reached approximately 100 mm^3 (NCI-H2110 on day 7, Hec-1b on day 7, and Ishikawa on day 17 post inoculation), animals were randomized based on tumor volume into groups of 6 mice each.
as §2, with “For all experiments, tumor size” for “Tumor size”, “in mm^3” for “in mm3”
as §3
as §4, with “mm^3.” for “mm3”, “mm^3).” for “mm3)”

KB (cervical cancer) = experiment: WST-8-based in vitro cytotoxicity assay (another experiment), KB; format: cell-based
Protocol: (§6) In another experiment, the ability of the conjugate to inhibit cell growth was measured using a WST-8-based in vitro cytotoxicity assay. Cells in 96-well plates (typically, 1×10^3 per well) were treated with the conjugate at various concentrations in an appropriate cell culture medium with a total volume of 0.2 ml. Control wells containing cells and the medium but lacking test compounds, and wells containing medium only, were included in each assay plate. The plates were incubated for 4 to 6 days at 37° C. in a humidified atmosphere containing 6% CO2. WST-8 reagent (10%, volume/volume; Dojindo Molecular Technologies) was then added to the wells, and the plates were incubated at 37° C. for 2 to 6 hours depending on a cell line. Then, the absorbance was measured on a plate reader spectrophotometer in the dual-wavelength mode 450 nm/620 nm, and the absorbance at the 620 nm (nonspecific light scattering by cells) was subtracted. The resulting OD450 values were utilized to calculate apparent surviving fractions of cells using GraphPad Prism v4 (GraphPad software, San Diego, Calif.). The apparent surviving fraction of the cells in each well was calculated by first correcting for the medium background absorbance and then dividing each value by the average of the values in the control wells (non-treated cells). Dose response curves were generated by non-linear regression using a sigmoidal curve fit with variable slope in Graph Pad Prism. IC50 (inhibitory concentration 50%) was generated by the software.

NCI-H2110 cells = experiment: Cytotoxicity assay (WST-8, 5 days), NCI-H2110; format: cell-based
Protocol: (§7) KB cells (buccal epithelial tumor), grown in EMEM (ATCC) supplemented with heat-inactived 10% FBS (Life Technologies) and 0.1 mg/ml gentamycin (Life Technologies), were washed once in PBS and removed with 0.05% trypsin-EDTA (Life Technologies). Other cells tested were NCI-H2110 (NSCLC) and T47D (breat epthelial) grown in RPMI-1640 (LifeTechnologies) supplemented with heat-inactived 10% FBS (Life Technologies) and 0.1 mg/ml gentamycin (Life Technologies). T47D media also was supplemented with 0.2 IU/ml bovine insulin. All cells were resuspended in growth media (see above) to neutralize trypsin and counted using a hemacytometer. 100 μl/ml of 1000 KB cells/well or 2000 T47D and NCI-H2110 cells/well were added to wells containing ADC or media only and incubated in a 37° C. incubator with 5% CO2 for 5 days with and without 1 μM blocking anti-FOLR1 antibody (M9346A). Total volume is 200 μl/well. The starting concentration of each conjugate on KB cells was 3.5e-9 M and for T47D and NCI-H2110 cells, the starting concentration of each conjugate was 3.5e-8 M. After incubation, cell viability was analyzed by addition of 20 μl/well WST-8 (Dojindo) and allowed to develop for 2 hr. Absorbance was read on a plate reader at 450 and 620 nm. Absorbances at 620 nm were subtracted from absorbances at 450 nm. Background in wells containing media only was further subtracted from corrected absorbances and surviving fraction (SF) of untreated cells was calculated in Excel. An XY graph of ADC concentration (M) vs. SF was created using Graph Pad Prism.

[3] = tested on: NCI-H2110 NSCLC xenografts; experiment: Antitumor activity of single dose against NCI-H2110 NSCLC xenografts (Example 4); format: in vivo, SCID mice
Protocol: as §1, with “mm^3” for “mm3”, “3” for “4”
as §2, with “mm^3” for “mm3”, “software. Tumor growth inhibition (T/C Value) was determined using the following formula: T/C (%)=Median tumor volume of the treated/Median tumor volume of the control×100.” for “software.”
as §4, with “mm^3.” for “mm3”, “mm^3).” for “mm3)”

[4] = tested on: NCI-H2110 NSCLC xenografts; experiment: Antitumor activity of single dose against NCI-H2110 NSCLC xenografts (Example 14); format: in vivo, SCID mice
Protocol: as §5
as §2, with “For all experiments, tumor size” for “Tumor size”, “in mm^3” for “in mm3”
as §3
as §4, with “mm^3.” for “mm3”, “mm^3).” for “mm3)”

[5] = tested on: Ishikawa (endometrial cancer); experiment: WST-8-based in vitro cytotoxicity assay (another experiment), Ishikawa; format: cell-based
Protocol: as §6

[6] = tested on: Hec-1b endometrial xenografts; experiment: Antitumor activity of single dose against Hec-1b endometrial xenografts (Example 14); format: in vivo, SCID mice
Protocol: as §5
as §2, with “For all experiments, tumor size” for “Tumor size”, “in mm^3” for “in mm3”
as §3
as §4, with “mm^3.” for “mm3”, “mm^3).” for “mm3)”

KB cells = experiment: Cytotoxicity assay (WST-8, 5 days), KB; format: cell-based
Protocol: as §7

[7] = tested on: 300.19 cells expressing recombinant FOLR1 (FR1#14) mixed with parental cells; experiment: Bystander killing activity (Cell Titer Glo); format: cell-based, mouse; details: 1 e-10 M and 4 e-10 M, 4 days
Protocol: Both 300.19 cells (mouse) expressing recombinant FOLR1(FR1#14) or no expression vector (parental) were counted on a hemacytometer. 50 μl/ml of 1000 FR1#14 cells/well were added to wells containing the conjugate or media only, 50 μl/ml of 2000 parental cells/well were added to wells containing the conjugate or media only and both FR1#14 and parental cells were added together to wells containing ADC or media only. All plates were incubated in a 37° C. incubator with 5% CO2 for 4 days. Total volume was 150 μl/well. After incubation, cell viability was analyzed by addition of 75 μl/well Cell Titer Glo (Promega) and allowed to develop for 45 min Luminescence was read on a luminometer and background in wells containing media only was subtracted from all values. A bar graph of the average of each cell treatment was graphed using Graph Pad Prism.

[8] = Pharmacokinetics of single dose in CD-1 mice; format: in vivo; details: single IV 2.5 mg/kg based on Ab, total Ab and intact conjugate by ELISA
Protocol: Female CD-1 mice, 7 weeks old, were received from Charles River Laboratories. […] Each mouse received a dose of 2.5 mg/kg based on Ab. The dose and injected volume were individualized on the basis of the body weight of each mouse. Injections were carried out using a 1.0 mL syringe fitted with a 27 gauge, ½ inch needle. […] At each time point (from 0 to 21 days), blood was collected from all three mice in one group. Groups were bled in turn; so that the mice in the set were not bled more than two times in a 24-hour period. At the final time point, 28 days post-administration, all mice were included for sample collection. Blood samples were centrifuged to separate the plasma. 30 μl plasma was transferred to individual labeled microcentrifuge tubes for each sample and time point, and then stored frozen at −80° C. to allow subsequent analysis by ELISA to determine concentrations of total Ab (both unconjugated Ab and intact ADC) and intact conjugate.

[9] = tested on: NCI-H2110 (non-small cell lung carcinoma); experiment: WST-8-based in vitro cytotoxicity assay (another experiment), NCI-H2110; format: cell-based
Protocol: as §6

[10] = single IV 5 μg/kg based on compound 1d
[11] = single IV 10 μg/kg based on drug
[12] = single IV 30 μg/kg based on drug
[13] = single IV 3 μg/kg based on drug
[14] = single IV 5 μg/kg based on drug

B1: huMOV19-sulfo-SPDB-1d (conjugate, chains of the INN, looked up)
heavy: QVQLVQSGAEVVKPGASVKISCKASGYTFTGYFMNWVKQSPGQSLEWIGRIHPYDGDTFYNQKFQGKATLTVDKSSNTAHMELLSLTSEDFAVYYCTRYDGSRAMDYWGQGTTVTVSSASTKGPSVFPLAPSSKSTSGGTAALGCLVKDYFPEPVTVSWNSGALTSGVHTFPAVLQSSGLYSLSSVVTVPSSSLGTQTYICNVNHKPSNTKVDKKV[human IgG1 Fc cut from this listing]
light: DIVLTQSPLSLAVSLGQPAIISCKASQSVSFAGTSLMHWYHQKPGQQPRLLIYRASNLEAGVPDRFSGSGSKTDFTLTISPVEAEDAATYYCQQSREYPYTFGGGTKLEIKRTVAAPSVFIFPPSDEQLKSGTASVVCLLNNFYPREAKVQWKVDNALQSGNSQESVTEQDSKDSTYSLSSTLTLSKADYEKHKVYACEVTHQGLSSPVTKSFNRGEC
modifications: sulfo-SPDB linker payload 1d
anti-tumor activity level ([1]; single IV 3 μg/kg based on compound 1d): active
anti-tumor activity level [1, 10]: highly active
T/C [2, 11]: 23%
anti-tumor activity level [2, 11]: active
T/C [2, 12]: 11%
anti-tumor activity level [2, 12]: active
activity against the cell line (KB (cervical cancer)): active
IC50 (KB (cervical cancer); + unmodified huMOV19 (1 μM)): 1000 pM
IC50 (KB (cervical cancer); conjugate alone): 10 pM
cytotoxic potency (NCI-H2110 cells; NCI-H2110 cells): highly potent
IC50 (NCI-H2110 cells; with 1 μM blocking anti-FOLR1 antibody (M9346A), read-out: IC50 NCI-H2110 +Block): 2000 pM
IC50 (NCI-H2110 cells; without blocking antibody, read-out: IC50 NCI-H2110 −Block): 300 pM
lowest dose at which activity was observed ([3]; FIG. 2): 5 µg/kg
tumor regression ([3]; multiple doses, FIG. 2): significant tumor regression
anti-tumor activity level [3, 10]: highly active
anti-tumor activity level ([3]; single IV 25 μg/kg based on compound 1d): highly active
anti-tumor activity level ([4]; single IV 1 μg/kg based on drug): inactive
T/C [4, 13]: 12%
anti-tumor activity level [4, 13]: active
T/C [4, 14]: 4%
anti-tumor activity level [4, 14]: highly active
complete regressions (CRs) [4, 14]: 3/6
partial regressions (PRs) [4, 14]: 6/6
activity against the cell line [5]: active
IC50 ([5]; + unmodified huMOV19 (1 μM)): 400 pM
IC50 ([5]; conjugate alone): 40 pM
T/C [6, 11]: 22%
anti-tumor activity level [6, 11]: active
T/C [6, 12]: 13%
anti-tumor activity level [6, 12]: active
complete regressions (CRs) [6, 12]: ⅙
partial regressions (PRs) [6, 12]: ⅙
cytotoxic potency (KB cells; KB cells): highly potent
IC50 (KB cells; with 1 μM blocking anti-FOLR1 antibody (M9346A), read-out: IC50 KB +Block): 600 pM
IC50 (KB cells; without blocking antibody, read-out: IC50 KB −Block): 8 pM
bystander killing of neighboring antigen-negative cells [7]: strong bystander killing activity; also recorded: strong cytotoxic effect on the neighboring antigen-negative cells
release of benzodiazepine compound from conjugate in plasma [8]: slow time-dependent release of benzodiazepine compound
activity against the cell line ([9]; NCI-H2110): active
IC50 ([9]; NCI-H2110, + unmodified huMOV19 (1 μM)): 1000 pM
IC50 ([9]; NCI-H2110, conjugate alone): 100 pM

Entries after “also recorded” stand apart in the source; their conditions may differ. Where two headings read alike, the source gives them in different places.
